From patent EP4821941A1, “BRAIN-TARGETING PEPTIDE, TRANSPORT CARRIER, AND METHOD FOR SCREENING PEPTIDE BINDING TO TARGET CELL” (dated 2026) come the findings set out here.

For one test, the system named is Cortical neurons. Put plainly: In vivo panning of a phage display peptide library in mice, next-generation sequencing read counts (cortical neurons). The note with it: after third round of in vivo panning; phage library 1×10^11 cfu via tail vein; cells collected by laser capture microdissection.
A further test deals with Whole cerebrum. Put plainly: In vivo panning of a phage display peptide library in mice, next-generation sequencing read counts (whole cerebrum). The settings on record: after third round of in vivo panning; phage library 1×10^11 cfu via tail vein; tissues collected five minutes after administration.

`CC[C@H](C)[C@H](NC(=O)CNC(=O)[C@H](CO)NC(=O)[C@@H](NC(=O)[C@@H](NC(=O)[C@@H](NC(=O)[C@@H](N)CCCCN)C(C)C)[C@@H](C)O)[C@@H](C)O)C(=O)O`: in the test with Cortical neurons, the “Number of reads Cortical neurons” value was determined as 216. In addition, in the test on Whole cerebrum, the “Number of reads Whole cerebrum” value amounted to 23.
Take `CC(C)[C@H](NC(=O)[C@@H](N)CCC(=O)O)C(=O)NCC(=O)N[C@H](C(=O)N[C@@H](C)C(=O)N[C@@H](CCCNC(=N)N)C(=O)N[C@@H](Cc1ccc(O)cc1)C(=O)O)[C@@H](C)O`: in the test on Cortical neurons, the “Number of reads Cortical neurons” value is 135. In addition, the “Number of reads Whole cerebrum” value in the test with Whole cerebrum is recorded as 41.
For `CC(C)C[C@H](NC(=O)[C@@H](N)Cc1c[nH]cn1)C(=O)N[C@@H](CC(=O)O)C(=O)N[C@@H](CO)C(=O)N[C@H](C(=O)N1CCC[C@H]1C(=O)N[C@@H](Cc1c[nH]cn1)C(=O)O)[C@@H](C)O`, the “Number of reads Cortical neurons” value in the test with Cortical neurons amounted to 247. Besides, the “Number of reads Whole cerebrum” value in the test on Whole cerebrum was determined as 140.
